# Test results from PubChem BioAssay AID567 (The Scripps Research Institute Molecular Screening Center, 2006).
# Protein sequences, listed by entry. Tags and fused reporters are not part of them.
# UniProt P08908, whole entry, looked up: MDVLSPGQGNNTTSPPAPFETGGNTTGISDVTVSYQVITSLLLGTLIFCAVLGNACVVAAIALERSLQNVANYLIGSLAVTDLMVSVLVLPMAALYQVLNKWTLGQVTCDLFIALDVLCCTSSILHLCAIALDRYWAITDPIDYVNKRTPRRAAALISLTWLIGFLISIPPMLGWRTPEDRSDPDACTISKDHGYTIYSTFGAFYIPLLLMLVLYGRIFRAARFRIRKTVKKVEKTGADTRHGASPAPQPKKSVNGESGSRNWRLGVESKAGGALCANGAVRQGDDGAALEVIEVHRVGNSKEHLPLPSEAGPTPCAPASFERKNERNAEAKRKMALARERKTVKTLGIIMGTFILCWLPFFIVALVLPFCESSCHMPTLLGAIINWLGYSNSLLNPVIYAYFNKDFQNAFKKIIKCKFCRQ
# This is a selection; strong and weak results do not stand in their true shares. Calls of active or inactive are those of the source.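 Rule for the calls: active = activation above the screen-wide mean activation plus 3 SD (cut at about 19% in these data); inactive = the rest.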
# Target: 5-hydroxytryptamine receptor 1A (Homo sapiens) (UniProt P08908)
# Assay: agonism at serotonin HTR1A receptor – cell-based, CHO, Ga15 NFAT-bla reporter, primary screen (AID 567);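 note: 0% = DMSO wells and 100% = 5-CT at EC100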
# Settings: CHO 5-HT1a Ga15 NFAT-bla reporter, FRET ratio; at 10 µM; stronger effect = higher value; 0% basal, 100% maximal reference agonist
row,Compound,activation
1,O=C(COc1ccccc1)OC1CN2CCC1CC2 (stereo not given),inactive: -2.87%
2,COP1(=S)c2c(C)nn(CCC#N)c2N=C(c2ccc(F)cc2)N1C (stereo not given),inactive: 0.51%
3,O=C(OC1CN2CCC1CC2)C12CC3CC(CC(C3)C1)C2 (stereo not given),inactive: 0.99%
4,CCOP1(=S)c2c(C)nn(CCC#N)c2N=C(c2ccccc2F)N1C (stereo not given),inactive: -0.69%
5,O=P(Nc1nccs1)(c1ccccc1)c1nc2ccccc2s1 (stereo not given),inactive: -6.69%
6,CCOP1(=S)c2c(C)nn(CCC#N)c2N=C(c2ccc(F)cc2)N1C (stereo not given),inactive: -2.06%
7,Cc1cccc(OCC(=O)OC2CN3CCC2CC3)c1 (stereo not given),inactive: -0.2%
8,Clc1n[nH]nc1-c1nn[nH][15n]1,inactive: -0.22%
9,O=P1(Nc2ccccn2)COc2ccccc2OC1,inactive: 0.81%
10,Cc1nn(-c2ccccc2)c2c1P(=O)(N1CCOCC1)N(C)C(c1ccccc1)=N2 (stereo not given),inactive: -0.42%
11,O=P1(Nc2ccc(Br)cn2)COc2ccccc2OC1,inactive: 2.2%
12,Cc1ccc(OCC(=O)OC2CN3CCC2CC3)cc1 (stereo not given),inactive: -0.35%
13,O=P1(Nc2ncccn2)COc2ccccc2OC1,inactive: 0.37%
14,O=C(OC1CN2CCC1CC2)c1cccc(Cl)c1 (stereo not given),inactive: -0.7%
15,c1nnnn1CCn1cnnn1,inactive: 0.35%
16,O=P(Nc1nccs1)(c1ccccc1)c1ccccc1,inactive: -0.84%
17,O=P1(Nc2nc3ccc(Cl)cc3s2)COc2ccccc2O1 (stereo not given),inactive: 0.34%
18,COC(=O)c1cc2c(s1)N=C(c1ccccc1)N(C)P2(=O)N1CCOCC1 (stereo not given),inactive: -0.86%
19,Cc1c2non([O-])c-2c(C)[n+](=O)[n+]1[O-],inactive: -1.54%
20,CCc1nc2c(n1)c1c(non1O)c1c2no[n+]1[O-],inactive: -1.23%
